# Earlier results, collected in patent US20190282692A1, “SELECTIVE LOCAL INHIBITION OF TNFR1-MEDIATED FUNCTIONS AT THE SITE OF ANTIGEN/ALLERGEN PRESENTATION” (priority 2012, published 2019).
# Conditions: 45 mg CMS/kg/day in two divided doses, one to two weeks; cited from earlier work
substance,measurement,value
choline magnesium trisalicylate [CMS],"steady state serum salicylate level, mean value",213+10 mg/L
